# Source: patent publication US10005817B2, “Peptide pharmaceuticals” (EUMEDERIS PHARMACEUTICALS, INC., priority 2012, dated 2018)
# Chains of the proteins cited; added tags and fusions are not shown.
# UniProt P35372, whole entry: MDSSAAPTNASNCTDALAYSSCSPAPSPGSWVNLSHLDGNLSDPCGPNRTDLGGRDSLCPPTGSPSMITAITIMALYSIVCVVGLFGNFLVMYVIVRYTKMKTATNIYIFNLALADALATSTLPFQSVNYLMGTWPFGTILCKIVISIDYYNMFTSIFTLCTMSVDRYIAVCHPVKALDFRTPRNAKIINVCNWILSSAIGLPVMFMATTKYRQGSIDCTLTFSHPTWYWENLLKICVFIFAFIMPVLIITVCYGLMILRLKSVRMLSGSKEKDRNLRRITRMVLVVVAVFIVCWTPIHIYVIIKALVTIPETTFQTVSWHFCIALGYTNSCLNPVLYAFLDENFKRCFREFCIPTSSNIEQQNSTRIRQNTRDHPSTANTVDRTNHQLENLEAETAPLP
# UniProt P32300, whole entry: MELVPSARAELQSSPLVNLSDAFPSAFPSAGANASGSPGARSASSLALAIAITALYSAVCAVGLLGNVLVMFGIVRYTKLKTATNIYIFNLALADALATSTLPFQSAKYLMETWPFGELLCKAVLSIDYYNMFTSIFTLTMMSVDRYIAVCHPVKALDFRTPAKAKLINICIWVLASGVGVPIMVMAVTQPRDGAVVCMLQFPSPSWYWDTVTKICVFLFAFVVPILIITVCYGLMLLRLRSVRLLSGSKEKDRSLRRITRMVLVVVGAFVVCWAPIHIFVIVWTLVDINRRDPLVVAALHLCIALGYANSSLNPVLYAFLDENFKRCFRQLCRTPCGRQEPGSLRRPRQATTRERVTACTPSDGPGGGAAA
# Legend:
# mu opioid receptor = biological target: T1, mu opioid receptor (Homo sapiens, UniProt P35372); assay: mu opioid receptor cellular assay (MOP), agonist mode, cAMP readout (Cerep); assay type: cell-based
# T1 construct: Cerep
# Description: (§1) Compounds were weighed precisely in an amount of approximately 2 mg and assayed in standard cellular assays by the contract research organization Cerep, Inc. (Pullman, Wash.) as executed at their subsidiary, Cerep SA (Le Bois l'Eveque, France). The readout is the amount of cAMP generated in the cells treated with the test compounds, in either agonist or antagonist mode. The assays used were the mu opioid receptor cellular assay (MOP in agonist and antagonist mode), the delta2 opioid receptor cellular assay (DOP in agonist and antagonist mode) and the kappa opioid receptor cellular assay (KOP in agonist and antagonist mode). The assays used are described in Wang, J. B., et al. (1994) FEBS Lett 338: 217-222, Law, P. Y. and Loh, H. H. (1993) Mol Pharmacol 43: 684-693, and Avidor-Reiss, T., et al. (1995) FEBS Lett 361: 70-74. The stimulant for the cells in the DOR antagonist assay was 3×10E-8M DPDPE, a well-accepted DOR literature standard.
# delta2 opioid receptor = biological target: T2, delta2 opioid receptor (Mus musculus, UniProt P32300); assay: delta2 opioid receptor cellular assay (DOP), antagonist mode vs DPDPE, cAMP readout; assay type: cell-based
# T2 construct: Cerep
# Description: as §1
SMILES,EC50 (mu opioid receptor) [nM],IC50 (delta2 opioid receptor) [nM]
"CO[C@@H]1O[C@H](C(=O)NCCCC[C@H](NC(=O)[C@H](Cc2ccccc2)NC(=O)[C@@H]2Cc3ccccc3CN2C(=O)[C@@H](N)Cc2c(C)cc(O)cc2C)C(N)=O)[C@@H](O)[C@H](O)[C@H]1O [EU-A178, 2′,6′-dimethyl-L-tyrosyl-L-1,2,3,4-tetrahydroisoquinoline-3-carbonyl-L-phenylalanyl-Nε-(1′-methyl β-D-glucuronyl)-L-lysyl-amide]",15,–
"CO[C@@H]1O[C@H](C(=O)NCCCC[C@@H](NC(=O)[C@H](Cc2ccccc2)NC(=O)[C@@H]2Cc3ccccc3CN2C(=O)[C@@H](N)Cc2c(C)cc(O)cc2C)C(N)=O)[C@@H](O)[C@H](O)[C@H]1O [EU-A615, Dmt-Tic-Phe-D-Lys(C1-glucuronyl)-Aib-NH2]",410,0.31
